{"source": "patent US6521814B1", "about": "“Use of ligands for treatment of diseases responsive to retinoids” (Institut National de la Santa et de la Recherche Medicale, priority 1997, dated 2003)", "target": "T1, RXRγ (Mus musculus, UniProt P28705)", "T1 construct": "expressed in transfected cells; host or cells: COS-1", "T1 sequence (P28705 1-463)": "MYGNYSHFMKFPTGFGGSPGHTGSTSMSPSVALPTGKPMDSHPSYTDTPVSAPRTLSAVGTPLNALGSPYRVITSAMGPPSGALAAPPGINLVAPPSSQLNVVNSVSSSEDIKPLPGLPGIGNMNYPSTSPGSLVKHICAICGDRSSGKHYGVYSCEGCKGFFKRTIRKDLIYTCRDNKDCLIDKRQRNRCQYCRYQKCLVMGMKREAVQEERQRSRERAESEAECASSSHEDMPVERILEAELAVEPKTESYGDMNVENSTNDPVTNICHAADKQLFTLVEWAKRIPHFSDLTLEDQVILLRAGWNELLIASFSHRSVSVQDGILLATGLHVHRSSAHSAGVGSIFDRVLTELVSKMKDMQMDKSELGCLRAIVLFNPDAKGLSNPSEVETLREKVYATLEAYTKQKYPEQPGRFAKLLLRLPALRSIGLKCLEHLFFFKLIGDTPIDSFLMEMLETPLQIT", "test": "D2R promoter CAT reporter assay in COS-1 cells cotransfected with RXRγ expression vector", "type": "cell-based", "details": "0.1 μM", "description": "Expression Vectors. The C1 reporter construct was obtained by subcloning the HindIII fragment spanning the 5 ′ promoter region of the D2R gene (positions −495 to +273), in the reporter plasmid pBLCAT3 (Luckow, B. & Schütz, G., Nucleic Acids Res. 15:5490 (1987)). The C2 reporter plasmid was constructed by subcloning the SmaI-XhoI fragment (positions −76 to +273) in the same position. The C3 and C4 reporters were generated by cloning a 29 bp synthetic oligonucleotide corresponding, respectively, to the natural rat D2R RARE sequence and the mutated one into pBLCAT2 (Luckow, B. & Schütz, G., Nucleic Acids Res. 15:5490 (1987)). The polylinker in pBLCAT2 is located upstream of the herpes simplex virus 1 (HSV1) thymidine kinase (TK) promoter, from position −105 to +51. To measure transfection efficiency the plasmid pCH110 carrying the β-galactosidase gene (Pharmacia) was used. Mouse […], as well as mouse RXRα, β and γ expression vectors were derived from the parental pSG5 vector (Green, S., et al., Nucleic Acids Res. 16:369 (1988)).\nCOS-1 cells were used for transient transfection assays. Cells were grown in Dulbecco's modified Eagle's medium supplemented with 5% fetal calf serum.\nSeveral hours before transfection, the medium was replaced with fresh medium containing 5% charcoal-treated FCS. […]", "data": [{"smiles": "CC1=C(/C=C/C(C)=C\\C=C\\C(C)=C\\C(=O)O)C(C)(C)CCC1", "note": "[9-cis-RA, 9-cis RA]", "values": [{"measurement": "increase in CAT activity", "setting": "C1 reporter + RXRγ", "result": 9, "unit": "fold"}, {"measurement": "increase in CAT activity", "setting": "C2 reporter + RXRγ", "result": 21, "unit": "fold"}]}]}
